# Yeast mating assay 2: variants of the scFv Ab-95

All variants were tested on one target, the spike HR2 peptide PDVDLGDISGINAS (SARS-CoV-2).

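Variants in AAYL52 differ from the parent at up to three CDR positions; double and triple changes were sampled at random. In AlphaSeq, yeast of one mating type display the scFv and yeast of the other type display the target. Pairs that bind mate more often; barcode pairs of the diploids are counted by sequencing. Each replicate has its own calibration line, from reference interactions of the BCL2 family. There are three technical replicates.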

Ab-95 is the parent antibody, in scFv form: VH, then three GGGGS repeats, then VL. The heavy chain is unchanged in all variants.
VH: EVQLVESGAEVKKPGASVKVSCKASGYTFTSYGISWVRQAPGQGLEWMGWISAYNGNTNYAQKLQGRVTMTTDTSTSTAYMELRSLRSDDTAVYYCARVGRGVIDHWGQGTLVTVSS
VL: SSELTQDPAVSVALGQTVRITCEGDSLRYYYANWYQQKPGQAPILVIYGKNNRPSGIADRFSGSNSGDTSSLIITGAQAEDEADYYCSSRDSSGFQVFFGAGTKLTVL

Positions count from residue 1 of the parent VL; E23S puts S in place of E. The read-out is the apparent dissociation constant on a log10 scale (nM): the lower, the stronger. Averages over replicates are reported, and they cover detected replicates only. An entry "ND" has no value in the source: the pair was not observed among the diploids in that replicate. This suggests poor binding but is not conclusive. For reference, the parent read 2.31 as the reference entry and 2.25 as a member of this library. As a blank, each scFv also met three strains without target: over library AAYL52, 28% of these pairings were detected, typically at 3.91 and seldom below 2.90. Also given: how often the same scFv was detected with the empty control strains, with their mean in brackets.

changes	replicates, log10 nM	mean, log10 nM	signal with controls
E23S+Y31W+F95R	2.24 2.01 1.85	2.03	3 of 9 (4.29)
N33E+N51I+S92G	ND ND ND	ND	1 of 9 (2.98)
K50E+G94D	ND ND ND	ND	0 of 9
R28F+G49E+D91P	ND ND 3.89	3.89	5 of 9 (4.27)
L27I+S88G+V97E	2.47 1.92 1.58	1.99	1 of 9 (3.51)
L27M+R28D+K50N	2.05 2.44 2.27	2.25	2 of 9 (4.29)
N33E+N52W+Q96L	3.97 ND 3.79	3.88	5 of 9 (3.39)
S55G+S89E	2.96 2.65 2.20	2.60	2 of 9 (4.33)
G49S+S89Q	ND 4.13 4.22	4.17	3 of 9 (4.32)
Y30G+G49M+G94D	2.46 3.79 2.88	3.04	0 of 9
L27W+Q96N	3.67 3.20 4.33	3.73	2 of 9 (3.75)
Y30S+N52Y+G94I	1.51 1.38 1.11	1.33	3 of 9 (4.67)
N52H+S89P	ND 4.55 ND	4.55	0 of 9
R53F+R90Q	ND ND ND	ND	1 of 9 (3.17)
D25Q+Y29S+F98H	2.23 1.79 2.07	2.03	5 of 9 (3.74)
G24E+L27D+S55Q	3.99 ND 3.71	3.85	2 of 9 (4.61)
S26E+Y30A+A32T	1.96 1.92 1.51	1.80	2 of 9 (4.12)
E23I+D91V+S92R	2.52 2.40 3.25	2.72	2 of 9 (3.82)
E23M+R28F+S55V	2.81 3.28 2.82	2.97	2 of 9 (3.90)
E23P+L27Q+S55Y	2.74 2.55 2.57	2.62	4 of 9 (3.99)
Y30G+P54N+F98W	1.42 1.22 1.10	1.25	1 of 9 (3.93)
D91K+S92I+F95R	ND 4.93 ND	4.93	3 of 9 (4.40)
R53Y+D91H+F95W	2.98 3.73 ND	3.36	2 of 9 (4.52)
Y31R+K50N+F95C	1.04 0.86 0.41	0.77	1 of 9 (4.59)
L27H+Y31S+V97F	3.79 3.52 ND	3.66	2 of 9 (4.36)
Y30D+N52Y+P54C	2.33 1.68 2.32	2.11	1 of 9 (4.72)
S26W+N52S+G94R	4.29 ND 3.74	4.02	3 of 9 (3.57)
N52L+S89T+Q96Y	4.99 2.78 4.50	4.09	3 of 9 (4.33)
G24K+N33D+K50Y	ND ND ND	ND	1 of 9 (3.47)
R28K+D91P+V97G	2.21 2.22 2.09	2.17	3 of 9 (3.32)
Y31K+R53L	2.29 2.34 2.45	2.36	2 of 9 (3.69)
A32F+N52T	4.21 4.78 ND	4.50	1 of 9 (2.67)
R28H+A32M+S93P	ND ND ND	ND	0 of 9
L27E+Y29C+Q96S	ND 3.01 ND	3.01	1 of 9 (3.91)
E23A+L27E+Y30D	2.27 2.87 2.75	2.63	1 of 9 (3.84)
E23N+L27G+N33I	ND ND ND	ND	1 of 9 (4.74)
E23K+G24F+R53Y	ND ND 3.25	3.25	3 of 9 (3.69)

The opening 3 entries, copied out:

changes,"replicates, log10 nM","mean, log10 nM",signal with controls
E23S+Y31W+F95R,2.24 2.01 1.85,2.03,3 of 9 (4.29)
N33E+N51I+S92G,ND ND ND,ND,1 of 9 (2.98)
K50E+G94D,ND ND ND,ND,0 of 9

Source: Engelhart et al. 2022 (doi:10.1038/s41597-022-01779-4), MIT Lincoln Laboratory and A-Alpha Bio; data file from the FLAb repository.